Assay results: patent US20250388669A1 (published 2025)

B1: Ly2136 (other)
chain 1: QVQLVQSGAEVKKPGASVKVSCKASGYTFTSYVMHWVRQKPGQGLEWIGYINPYNEGTESTDKFKGRATMTSDKSTSTVYMELSSLRSEDTAVYYCASIYYGYEGTYFGVWGQGTLVTVSSASTKGPSVFPLAPSSKSTSGGTAALGCLVKDYFPEPVTVSWNSGALTSGVHTFPAVLQSSGLYSLSSVVTVPSSSLGTQTYICNVNHKPSNTKVDKKVEPKSCGGGGSGGGGSGGGGSGGGGSGGGGSEVQLVESGGGLVQPGGSLRLSCAASGFTFSTYAMNWVRQAPGKGLEWVGRIRSKYNNYATYYADSVKGRFTISRDDSKNSLYLQMNSLKTEDTAVYYCVRHGNFGNSYVSWFAYWGQGTLVTVSSGGGGSDKTHTCPPCPAPEAAGPSVFLFPPKPKDTLMISRTPEVTCVVVDVSHEDPEVKFNWYVDGVEVHNAKTKPREEQYNSTYRVVSVLTVLHQDWLNGKEYKCKVSNKALPAPIEKTISKAKGQPREPQVYTLPPSREEMTKNQVSLWCLVKGFYPSDIAVEWESNGQPENNYKTTPPVLDSDGSFFLYSKLTVDKSRWQQGNVFSCSVMHEALHNHYTQKSLSLSPGGGGGSGGGGSGGGGSGGGGSQVQLVQSGAEVKKPGASVKVSCKASGYTFTSYYIHWVRQAPGQGLEWIGCIYPGNVNTNYNEKFKDRATLTVDTSISTAYMELSRLRSDDTAVYFCTRSHYGLDWNFDVWGQGTTVTVSS
chain 2: QVQLVQSGAEVKKPGASVKVSCKASGYTFTSYVMHWVRQKPGQGLEWIGYINPYNEGTESTDKFKGRATMTSDKSTSTVYMELSSLRSEDTAVYYCASIYYGYEGTYFGVWGQGTLVTVSSASTKGPSVFPLAPSSKSTSGGTAALGCLVKDYFPEPVTVSWNSGALTSGVHTFPAVLQSSGLYSLSSVVTVPSSSLGTQTYICNVNHKPSNTKVDKKVEPKSCGGGGSGGGGSGGGGSGGGGSGGGGSQAVVTQEPSLTVSPGGTVTLTCRSSTGAVTTSNYANWVQQKPGQAPRGLIGGTNKRAPWTPARFSGSLLGGKAALTITGAQAEDEADYYCALWYSNLWVFGGGTKLTVLGGGGSDKTHTCPPCPAPEAAGPSVFLFPPKPKDTLMISRTPEVTCVVVDVSHEDPEVKFNWYVDGVEVHNAKTKPREEQYNSTYRVVSVLTVLHQDWLNGKEYKCKVSNKALPAPIEKTISKAKGQPREPQVYTLPPSREEMTKNQVSLSCAVKGFYPSDIAVEWESNGQPENNYKTTPPVLDSDGSFFLVSKLTVDKSRWQQGNVFSCSVMHEALHNRFTQKSLSLSPGGGGGSGGGGSGGGGSGGGGSDIQMTQSPSSLSASVGDRVTITCHASQNIYVWLNWYQQKPGKAPKLLIYKASNLHTGVPSRFSGSGSGTDFTLTISSLQPEDFATYYCQQGQTYPYTFGGGTKVEIK
light: EIVLTQSPATLSLSPGERATLSCRASSSVSYMHWYQQKPGQAPRPWIYATSNLASGIPARFSGSRSGTDYTLTISSLEPEDFAVYYCQQWSSNTLTFGGGTKVEIKRTVAAPSVFIFPPSDEQLKSGTASVVCLLNNFYPREAKVQWKVDNALQSGNSQESVTEQDSKDSTYSLSSTLTLSKADYEKHKVYACEVTHQGLSSPVTKSFNRGEC
notes: Tri-specific antibody: B7H3 Fabs, central CD3 Fv, terminal CD28 Fv; Flexible linker is (G4S)5
B2: Ly2138 (other)
chain 1: QVQLVQSGAEVKKPGASVKVSCKASGYTFTSYVMHWVRQKPGQGLEWIGYINPYNEGTESTDKFKGRATMTSDKSTSTVYMELSSLRSEDTAVYYCASIYYGYEGTYFGVWGQGTLVTVSSASTKGPSVFPLAPSSKSTSGGTAALGCLVKDYFPEPVTVSWNSGALTSGVHTFPAVLQSSGLYSLSSVVTVPSSSLGTQTYICNVNHKPSNTKVDKKVEPKSCGGGGSGGGGSEVQLVESGGGLVQPGGSLRLSCAASGFTFSTYAMNWVRQAPGKGLEWVGRIRSKYNNYATYYADSVKGRFTISRDDSKNSLYLQMNSLKTEDTAVYYCVRHGNFGNSYVSWFAYWGQGTLVTVSSGGGGSDKTHTCPPCPAPEAAGPSVFLFPPKPKDTLMISRTPEVTCVVVDVSHEDPEVKFNWYVDGVEVHNAKTKPREEQYNSTYRVVSVLTVLHQDWLNGKEYKCKVSNKALPAPIEKTISKAKGQPREPQVYTLPPSREEMTKNQVSLWCLVKGFYPSDIAVEWESNGQPENNYKTTPPVLDSDGSFFLYSKLTVDKSRWQQGNVFSCSVMHEALHNHYTQKSLSLSPGGGGGSGGGGSGGGGSGGGGSQVQLVQSGAEVKKPGASVKVSCKASGYTFTSYYIHWVRQAPGQGLEWIGCIYPGNVNTNYNEKFKDRATLTVDTSISTAYMELSRLRSDDTAVYFCTRSHYGLDWNFDVWGQGTTVTVSS
chain 2: QVQLVQSGAEVKKPGASVKVSCKASGYTFTSYVMHWVRQKPGQGLEWIGYINPYNEGTESTDKFKGRATMTSDKSTSTVYMELSSLRSEDTAVYYCASIYYGYEGTYFGVWGQGTLVTVSSASTKGPSVFPLAPSSKSTSGGTAALGCLVKDYFPEPVTVSWNSGALTSGVHTFPAVLQSSGLYSLSSVVTVPSSSLGTQTYICNVNHKPSNTKVDKKVEPKSCGGGGSGGGGSQAVVTQEPSLTVSPGGTVTLTCRSSTGAVTTSNYANWVQQKPGQAPRGLIGGTNKRAPWTPARFSGSLLGGKAALTITGAQAEDEADYYCALWYSNLWVFGGGTKLTVLGGGGSDKTHTCPPCPAPEAAGPSVFLFPPKPKDTLMISRTPEVTCVVVDVSHEDPEVKFNWYVDGVEVHNAKTKPREEQYNSTYRVVSVLTVLHQDWLNGKEYKCKVSNKALPAPIEKTISKAKGQPREPQVYTLPPSREEMTKNQVSLSCAVKGFYPSDIAVEWESNGQPENNYKTTPPVLDSDGSFFLVSKLTVDKSRWQQGNVFSCSVMHEALHNRFTQKSLSLSPGGGGGSGGGGSGGGGSGGGGSDIQMTQSPSSLSASVGDRVTITCHASQNIYVWLNWYQQKPGKAPKLLIYKASNLHTGVPSRFSGSGSGTDFTLTISSLQPEDFATYYCQQGQTYPYTFGGGTKVEIK
light: B1 light
notes: Tri-specific antibody: B7H3 Fabs, central CD3 Fv, terminal CD28 Fv; Flexible linker is (G4S)2
B3: Ly2137 (other)
chain 1: QVQLVQSGAEVKKPGASVKVSCKASGYTFTSYVMHWVRQKPGQGLEWIGYINPYNEGTESTDKFKGRATMTSDKSTSTVYMELSSLRSEDTAVYYCASIYYGYEGTYFGVWGQGTLVTVSSASTKGPSVFPLAPSSKSTSGGTAALGCLVKDYFPEPVTVSWNSGALTSGVHTFPAVLQSSGLYSLSSVVTVPSSSLGTQTYICNVNHKPSNTKVDKKVEPKSCGGGGSGGGGSGGGGSEVQLVESGGGLVQPGGSLRLSCAASGFTFSTYAMNWVRQAPGKGLEWVGRIRSKYNNYATYYADSVKGRFTISRDDSKNSLYLQMNSLKTEDTAVYYCVRHGNFGNSYVSWFAYWGQGTLVTVSSGGGGSDKTHTCPPCPAPEAAGPSVFLFPPKPKDTLMISRTPEVTCVVVDVSHEDPEVKFNWYVDGVEVHNAKTKPREEQYNSTYRVVSVLTVLHQDWLNGKEYKCKVSNKALPAPIEKTISKAKGQPREPQVYTLPPSREEMTKNQVSLWCLVKGFYPSDIAVEWESNGQPENNYKTTPPVLDSDGSFFLYSKLTVDKSRWQQGNVFSCSVMHEALHNHYTQKSLSLSPGGGGGSGGGGSGGGGSGGGGSQVQLVQSGAEVKKPGASVKVSCKASGYTFTSYYIHWVRQAPGQGLEWIGCIYPGNVNTNYNEKFKDRATLTVDTSISTAYMELSRLRSDDTAVYFCTRSHYGLDWNFDVWGQGTTVTVSS
chain 2: QVQLVQSGAEVKKPGASVKVSCKASGYTFTSYVMHWVRQKPGQGLEWIGYINPYNEGTESTDKFKGRATMTSDKSTSTVYMELSSLRSEDTAVYYCASIYYGYEGTYFGVWGQGTLVTVSSASTKGPSVFPLAPSSKSTSGGTAALGCLVKDYFPEPVTVSWNSGALTSGVHTFPAVLQSSGLYSLSSVVTVPSSSLGTQTYICNVNHKPSNTKVDKKVEPKSCGGGGSGGGGSGGGGSQAVVTQEPSLTVSPGGTVTLTCRSSTGAVTTSNYANWVQQKPGQAPRGLIGGTNKRAPWTPARFSGSLLGGKAALTITGAQAEDEADYYCALWYSNLWVFGGGTKLTVLGGGGSDKTHTCPPCPAPEAAGPSVFLFPPKPKDTLMISRTPEVTCVVVDVSHEDPEVKFNWYVDGVEVHNAKTKPREEQYNSTYRVVSVLTVLHQDWLNGKEYKCKVSNKALPAPIEKTISKAKGQPREPQVYTLPPSREEMTKNQVSLSCAVKGFYPSDIAVEWESNGQPENNYKTTPPVLDSDGSFFLVSKLTVDKSRWQQGNVFSCSVMHEALHNRFTQKSLSLSPGGGGGSGGGGSGGGGSGGGGSDIQMTQSPSSLSASVGDRVTITCHASQNIYVWLNWYQQKPGKAPKLLIYKASNLHTGVPSRFSGSGSGTDFTLTISSLQPEDFATYYCQQGQTYPYTFGGGTKVEIK
light: B1 light
notes: Tri-specific antibody: B7H3 Fabs, central CD3 Fv, terminal CD28 Fv; Flexible linker is (G4S)3
B4: Ly2128 (other)
chain 1: QVQLVQSGAEVKKPGASVKVSCKASGYTFTSYVMHWVRQKPGQGLEWIGYINPYNEGTESTDKFKGRATMTSDKSTSTVYMELSSLRSEDTAVYYCASIYYGYEGTYFGVWGQGTLVTVSSASTKGPSVFPLAPSSKSTSGGTAALGCLVKDYFPEPVTVSWNSGALTSGVHTFPAVLQSSGLYSLSSVVTVPSSSLGTQTYICNVNHKPSNTKVDKKVEPKSCGGGGSGGGGSGGGGSGGGGSEVQLVESGGGLVQPGGSLRLSCAASGFTFSTYAMNWVRQAPGKGLEWVGRIRSKYNNYATYYADSVKGRFTISRDDSKNSLYLQMNSLKTEDTAVYYCVRHGNFGNSYVSWFAYWGQGTLVTVSSGGGGSDKTHTCPPCPAPEAAGPSVFLFPPKPKDTLMISRTPEVTCVVVDVSHEDPEVKFNWYVDGVEVHNAKTKPREEQYNSTYRVVSVLTVLHQDWLNGKEYKCKVSNKALPAPIEKTISKAKGQPREPQVYTLPPSREEMTKNQVSLWCLVKGFYPSDIAVEWESNGQPENNYKTTPPVLDSDGSFFLYSKLTVDKSRWQQGNVFSCSVMHEALHNHYTQKSLSLSPGGGGGSGGGGSGGGGSGGGGSQVQLVQSGAEVKKPGASVKVSCKASGYTFTSYYIHWVRQAPGQGLEWIGCIYPGNVNTNYNEKFKDRATLTVDTSISTAYMELSRLRSDDTAVYFCTRSHYGLDWNFDVWGQGTTVTVSS
chain 2: QVQLVQSGAEVKKPGASVKVSCKASGYTFTSYVMHWVRQKPGQGLEWIGYINPYNEGTESTDKFKGRATMTSDKSTSTVYMELSSLRSEDTAVYYCASIYYGYEGTYFGVWGQGTLVTVSSASTKGPSVFPLAPSSKSTSGGTAALGCLVKDYFPEPVTVSWNSGALTSGVHTFPAVLQSSGLYSLSSVVTVPSSSLGTQTYICNVNHKPSNTKVDKKVEPKSCGGGGSGGGGSGGGGSGGGGSQAVVTQEPSLTVSPGGTVTLTCRSSTGAVTTSNYANWVQQKPGQAPRGLIGGTNKRAPWTPARFSGSLLGGKAALTITGAQAEDEADYYCALWYSNLWVFGGGTKLTVLGGGGSDKTHTCPPCPAPEAAGPSVFLFPPKPKDTLMISRTPEVTCVVVDVSHEDPEVKFNWYVDGVEVHNAKTKPREEQYNSTYRVVSVLTVLHQDWLNGKEYKCKVSNKALPAPIEKTISKAKGQPREPQVYTLPPSREEMTKNQVSLSCAVKGFYPSDIAVEWESNGQPENNYKTTPPVLDSDGSFFLVSKLTVDKSRWQQGNVFSCSVMHEALHNRFTQKSLSLSPGGGGGSGGGGSGGGGSGGGGSDIQMTQSPSSLSASVGDRVTITCHASQNIYVWLNWYQQKPGKAPKLLIYKASNLHTGVPSRFSGSGSGTDFTLTISSLQPEDFATYYCQQGQTYPYTFGGGTKVEIK
light: B1 light
notes: Tri-specific antibody: B7H3 Fabs, central CD3 Fv, terminal CD28 Fv; Flexible linker is (G4S)4

biological target: T1, B7H3 (human, UniProt Q5ZPR3 29-466, limits assumed); assay: ELISA or FCM (Example 2)
T1 sequence (looked up): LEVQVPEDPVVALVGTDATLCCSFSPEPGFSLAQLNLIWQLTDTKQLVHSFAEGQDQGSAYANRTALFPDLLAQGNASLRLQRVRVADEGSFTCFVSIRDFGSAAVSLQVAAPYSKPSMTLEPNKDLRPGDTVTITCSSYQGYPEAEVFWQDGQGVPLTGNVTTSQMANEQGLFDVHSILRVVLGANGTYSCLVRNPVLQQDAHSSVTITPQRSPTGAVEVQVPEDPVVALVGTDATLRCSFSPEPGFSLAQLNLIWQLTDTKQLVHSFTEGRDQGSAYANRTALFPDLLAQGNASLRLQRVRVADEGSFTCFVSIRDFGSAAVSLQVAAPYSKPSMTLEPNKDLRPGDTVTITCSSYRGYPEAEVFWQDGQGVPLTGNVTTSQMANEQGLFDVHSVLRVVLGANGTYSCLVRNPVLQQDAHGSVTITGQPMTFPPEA

**Q.** Does B1 bind?
**A.** Result: binds

**Q.** Does B2 bind?
**A.** Result: binds

**Q.** Does B3 bind?
**A.** Result: binds

**Q.** Does B4 bind?
**A.** Result: binds
